{
  "source": "ChEMBL document CHEMBL1121659",
  "about": "“A nonmetabolized analogue of phenytoin” (J Med Chem, 1981)",
  "experiment": "in vivo",
  "conditions": "mouse, ip",
  "data": [
    {"smiles": "O=C1NC(=O)C(c2ccccc2)(c2ccccc2)N1", "note": "[PHENYTOIN]", "values": [
      {"measurement": "LD50 at 72 h", "value": 200, "unit": "mg/kg"}
    ]}
  ]
}
